From the Kinase Knowledgebase extract (Sharma et al. 2016)
Values after ≈ are worked out from the molar mass of the structure shown.

The chains behind the UniProt entries cited, without tags or fusion partners. Where a name states a change or a piece, a line headed by the entry shows the natural chain unless it says otherwise.
UniProt P42336, whole entry, looked up: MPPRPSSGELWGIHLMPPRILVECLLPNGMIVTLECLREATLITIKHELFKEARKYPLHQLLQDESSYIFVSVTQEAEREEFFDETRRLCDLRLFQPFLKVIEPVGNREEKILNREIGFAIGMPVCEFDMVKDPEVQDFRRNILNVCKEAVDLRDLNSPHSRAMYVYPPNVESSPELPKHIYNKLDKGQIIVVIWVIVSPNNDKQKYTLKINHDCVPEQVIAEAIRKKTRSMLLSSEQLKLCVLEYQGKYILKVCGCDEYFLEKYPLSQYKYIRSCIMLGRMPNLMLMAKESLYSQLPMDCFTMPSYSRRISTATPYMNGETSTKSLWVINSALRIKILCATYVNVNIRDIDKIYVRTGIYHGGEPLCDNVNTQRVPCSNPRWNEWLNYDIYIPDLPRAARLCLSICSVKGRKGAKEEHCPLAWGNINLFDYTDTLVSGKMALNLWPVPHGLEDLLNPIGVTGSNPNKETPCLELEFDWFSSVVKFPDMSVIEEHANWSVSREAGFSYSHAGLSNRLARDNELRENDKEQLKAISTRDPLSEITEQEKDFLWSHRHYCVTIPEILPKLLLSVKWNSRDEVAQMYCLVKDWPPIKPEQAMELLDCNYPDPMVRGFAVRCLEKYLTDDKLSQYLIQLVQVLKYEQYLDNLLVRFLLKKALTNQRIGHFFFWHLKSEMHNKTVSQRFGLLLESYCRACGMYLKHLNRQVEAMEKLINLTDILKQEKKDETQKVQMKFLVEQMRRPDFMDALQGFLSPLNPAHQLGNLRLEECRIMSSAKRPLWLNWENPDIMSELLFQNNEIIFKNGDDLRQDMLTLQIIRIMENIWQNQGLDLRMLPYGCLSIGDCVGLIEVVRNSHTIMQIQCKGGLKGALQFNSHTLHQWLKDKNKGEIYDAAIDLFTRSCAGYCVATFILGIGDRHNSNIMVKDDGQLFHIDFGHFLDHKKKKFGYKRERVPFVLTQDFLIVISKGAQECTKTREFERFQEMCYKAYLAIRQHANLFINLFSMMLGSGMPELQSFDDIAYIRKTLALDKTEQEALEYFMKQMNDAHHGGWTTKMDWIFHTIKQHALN
UniProt Q16539, whole entry, looked up: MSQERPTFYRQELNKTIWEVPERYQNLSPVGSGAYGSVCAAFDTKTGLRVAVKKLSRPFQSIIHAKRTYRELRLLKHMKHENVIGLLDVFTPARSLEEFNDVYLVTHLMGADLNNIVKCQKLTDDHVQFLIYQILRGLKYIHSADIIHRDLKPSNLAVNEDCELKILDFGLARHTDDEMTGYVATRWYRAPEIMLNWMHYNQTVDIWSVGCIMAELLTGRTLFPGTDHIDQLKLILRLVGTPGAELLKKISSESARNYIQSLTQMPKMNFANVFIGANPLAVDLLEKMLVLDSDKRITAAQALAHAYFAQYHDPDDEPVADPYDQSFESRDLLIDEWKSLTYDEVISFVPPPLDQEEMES
UniProt P00533, whole entry, looked up: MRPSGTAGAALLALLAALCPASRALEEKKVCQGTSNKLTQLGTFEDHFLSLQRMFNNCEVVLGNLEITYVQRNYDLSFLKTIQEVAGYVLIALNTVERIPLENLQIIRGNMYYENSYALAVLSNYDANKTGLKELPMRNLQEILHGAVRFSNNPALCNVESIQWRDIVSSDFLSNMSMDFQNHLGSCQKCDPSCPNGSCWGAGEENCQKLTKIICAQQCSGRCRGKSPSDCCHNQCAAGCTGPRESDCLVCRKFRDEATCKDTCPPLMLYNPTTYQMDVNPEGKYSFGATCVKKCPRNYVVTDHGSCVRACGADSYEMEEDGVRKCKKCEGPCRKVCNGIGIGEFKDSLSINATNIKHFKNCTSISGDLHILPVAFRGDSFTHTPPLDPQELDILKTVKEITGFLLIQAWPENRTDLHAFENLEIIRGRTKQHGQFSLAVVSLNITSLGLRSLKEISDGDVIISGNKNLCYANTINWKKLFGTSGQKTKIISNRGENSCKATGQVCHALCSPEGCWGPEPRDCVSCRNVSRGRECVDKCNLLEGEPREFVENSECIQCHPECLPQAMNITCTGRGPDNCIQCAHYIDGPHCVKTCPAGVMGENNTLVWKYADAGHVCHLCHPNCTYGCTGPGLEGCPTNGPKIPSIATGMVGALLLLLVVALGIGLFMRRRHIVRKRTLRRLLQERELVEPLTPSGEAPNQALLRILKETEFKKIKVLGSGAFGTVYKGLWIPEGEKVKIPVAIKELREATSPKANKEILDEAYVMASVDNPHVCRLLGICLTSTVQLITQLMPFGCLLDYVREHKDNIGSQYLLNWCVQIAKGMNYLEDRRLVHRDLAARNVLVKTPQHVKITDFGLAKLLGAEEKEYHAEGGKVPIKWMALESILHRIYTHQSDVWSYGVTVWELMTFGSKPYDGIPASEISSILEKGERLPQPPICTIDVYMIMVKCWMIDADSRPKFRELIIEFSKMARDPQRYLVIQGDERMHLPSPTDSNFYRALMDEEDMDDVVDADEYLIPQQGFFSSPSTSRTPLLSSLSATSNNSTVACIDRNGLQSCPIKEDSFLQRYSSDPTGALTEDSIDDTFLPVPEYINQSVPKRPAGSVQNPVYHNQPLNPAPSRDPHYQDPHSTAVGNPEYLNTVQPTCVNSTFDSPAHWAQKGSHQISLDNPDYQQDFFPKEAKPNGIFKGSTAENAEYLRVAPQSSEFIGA
UniProt O75116: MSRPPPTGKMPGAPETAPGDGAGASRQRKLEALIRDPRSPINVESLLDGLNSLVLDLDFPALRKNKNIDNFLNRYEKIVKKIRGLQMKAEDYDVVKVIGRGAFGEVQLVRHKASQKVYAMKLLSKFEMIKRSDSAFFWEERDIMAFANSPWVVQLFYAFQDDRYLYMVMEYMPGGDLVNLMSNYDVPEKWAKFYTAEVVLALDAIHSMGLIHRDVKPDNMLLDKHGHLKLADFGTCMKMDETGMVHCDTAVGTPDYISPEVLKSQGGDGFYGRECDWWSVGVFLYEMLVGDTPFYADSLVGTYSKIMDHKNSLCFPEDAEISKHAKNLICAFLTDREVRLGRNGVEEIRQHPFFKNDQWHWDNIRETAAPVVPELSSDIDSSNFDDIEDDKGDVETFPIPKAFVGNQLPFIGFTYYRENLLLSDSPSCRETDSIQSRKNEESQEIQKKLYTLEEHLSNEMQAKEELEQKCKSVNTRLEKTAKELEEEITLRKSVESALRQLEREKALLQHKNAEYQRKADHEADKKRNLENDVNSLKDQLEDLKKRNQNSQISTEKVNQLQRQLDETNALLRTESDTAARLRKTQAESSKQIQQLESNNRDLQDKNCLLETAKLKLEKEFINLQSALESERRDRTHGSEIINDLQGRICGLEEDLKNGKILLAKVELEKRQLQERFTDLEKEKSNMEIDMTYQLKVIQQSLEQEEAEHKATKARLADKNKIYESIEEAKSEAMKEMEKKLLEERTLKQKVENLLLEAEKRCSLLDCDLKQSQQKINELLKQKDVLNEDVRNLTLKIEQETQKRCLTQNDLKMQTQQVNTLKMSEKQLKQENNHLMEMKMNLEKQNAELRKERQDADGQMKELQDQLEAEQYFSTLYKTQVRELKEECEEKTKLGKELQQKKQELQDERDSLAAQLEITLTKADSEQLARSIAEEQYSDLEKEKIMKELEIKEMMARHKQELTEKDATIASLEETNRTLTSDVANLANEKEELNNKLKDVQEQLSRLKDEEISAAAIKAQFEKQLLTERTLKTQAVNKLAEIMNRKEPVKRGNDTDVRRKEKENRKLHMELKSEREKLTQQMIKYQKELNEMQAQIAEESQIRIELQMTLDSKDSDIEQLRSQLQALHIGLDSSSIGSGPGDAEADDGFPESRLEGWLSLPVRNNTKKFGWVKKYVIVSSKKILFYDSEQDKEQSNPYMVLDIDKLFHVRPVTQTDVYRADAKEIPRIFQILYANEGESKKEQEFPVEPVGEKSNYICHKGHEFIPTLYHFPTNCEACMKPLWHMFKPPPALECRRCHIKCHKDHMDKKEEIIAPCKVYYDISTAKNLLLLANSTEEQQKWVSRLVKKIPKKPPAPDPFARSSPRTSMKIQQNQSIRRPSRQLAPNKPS
UniProt P48736, whole entry, looked up, stated change not applied: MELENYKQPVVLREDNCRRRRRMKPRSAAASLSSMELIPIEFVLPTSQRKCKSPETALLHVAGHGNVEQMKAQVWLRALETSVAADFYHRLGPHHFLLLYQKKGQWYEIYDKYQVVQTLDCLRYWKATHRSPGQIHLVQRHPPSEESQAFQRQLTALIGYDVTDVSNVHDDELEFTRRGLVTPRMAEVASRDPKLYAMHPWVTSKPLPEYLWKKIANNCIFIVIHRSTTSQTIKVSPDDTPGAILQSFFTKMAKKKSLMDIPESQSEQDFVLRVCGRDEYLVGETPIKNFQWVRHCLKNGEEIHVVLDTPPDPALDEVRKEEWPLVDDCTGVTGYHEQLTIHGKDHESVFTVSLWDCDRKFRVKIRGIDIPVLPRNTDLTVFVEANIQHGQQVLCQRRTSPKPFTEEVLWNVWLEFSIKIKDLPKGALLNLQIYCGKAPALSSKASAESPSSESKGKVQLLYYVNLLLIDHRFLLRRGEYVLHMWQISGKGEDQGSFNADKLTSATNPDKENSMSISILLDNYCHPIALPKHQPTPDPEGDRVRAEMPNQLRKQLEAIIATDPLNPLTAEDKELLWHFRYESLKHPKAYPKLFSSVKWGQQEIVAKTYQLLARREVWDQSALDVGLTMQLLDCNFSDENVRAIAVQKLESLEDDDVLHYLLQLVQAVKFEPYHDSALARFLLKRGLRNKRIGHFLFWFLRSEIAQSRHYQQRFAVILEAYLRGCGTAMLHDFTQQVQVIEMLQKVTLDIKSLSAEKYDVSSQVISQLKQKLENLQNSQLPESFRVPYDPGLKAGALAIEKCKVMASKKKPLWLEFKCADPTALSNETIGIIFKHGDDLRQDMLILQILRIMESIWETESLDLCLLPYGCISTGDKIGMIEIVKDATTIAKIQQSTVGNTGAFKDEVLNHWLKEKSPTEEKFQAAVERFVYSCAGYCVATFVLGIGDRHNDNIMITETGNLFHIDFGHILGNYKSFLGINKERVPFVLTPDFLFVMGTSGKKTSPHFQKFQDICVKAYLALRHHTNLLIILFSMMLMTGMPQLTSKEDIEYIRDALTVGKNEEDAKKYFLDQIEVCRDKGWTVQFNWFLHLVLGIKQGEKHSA
UniProt P42338: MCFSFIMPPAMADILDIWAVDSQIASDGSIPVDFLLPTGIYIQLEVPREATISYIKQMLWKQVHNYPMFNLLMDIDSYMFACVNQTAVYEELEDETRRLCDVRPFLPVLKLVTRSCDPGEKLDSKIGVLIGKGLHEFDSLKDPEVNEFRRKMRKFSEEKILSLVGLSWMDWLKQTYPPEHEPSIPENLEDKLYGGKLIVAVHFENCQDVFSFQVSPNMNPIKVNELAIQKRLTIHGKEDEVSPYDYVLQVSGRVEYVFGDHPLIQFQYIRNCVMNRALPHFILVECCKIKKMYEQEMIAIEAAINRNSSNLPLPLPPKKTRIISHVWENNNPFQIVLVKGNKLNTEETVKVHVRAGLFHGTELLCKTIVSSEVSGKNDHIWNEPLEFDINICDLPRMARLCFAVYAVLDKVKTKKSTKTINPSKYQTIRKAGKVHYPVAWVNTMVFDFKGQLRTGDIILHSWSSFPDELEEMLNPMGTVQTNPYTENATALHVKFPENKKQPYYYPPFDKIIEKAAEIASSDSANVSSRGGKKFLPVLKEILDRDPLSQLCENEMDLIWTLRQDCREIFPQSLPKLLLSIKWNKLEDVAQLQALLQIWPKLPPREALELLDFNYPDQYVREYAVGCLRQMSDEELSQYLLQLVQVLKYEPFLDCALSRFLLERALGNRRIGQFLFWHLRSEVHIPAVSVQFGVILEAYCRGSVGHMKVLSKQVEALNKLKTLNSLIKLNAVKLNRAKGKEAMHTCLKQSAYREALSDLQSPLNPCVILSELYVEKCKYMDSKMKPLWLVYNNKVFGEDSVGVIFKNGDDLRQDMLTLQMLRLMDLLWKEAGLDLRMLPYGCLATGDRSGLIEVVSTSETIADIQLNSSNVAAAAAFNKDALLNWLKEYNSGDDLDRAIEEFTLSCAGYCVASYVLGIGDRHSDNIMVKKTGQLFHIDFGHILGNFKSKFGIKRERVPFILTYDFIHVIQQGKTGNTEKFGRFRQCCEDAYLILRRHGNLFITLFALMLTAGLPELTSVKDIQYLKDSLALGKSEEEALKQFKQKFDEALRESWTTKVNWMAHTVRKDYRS

Columns and labels:
PIK3CA (human) [1] = molecular target: PIK3CA (human) (UniProt P42336); assay: Inhibition of PIK3CA Kinase Activity
MAPK14 (human) [2] = molecular target: MAPK14 (human) (UniProt Q16539); assay: Inhibition of MAPK14 Kinase Activity
CDK2 (human) [3] = molecular target: CDK2 (human) (UniProt P24941); assay: Enzyme Assay
EGFR [4] = molecular target: EGFR (UniProt P00533)
PIK3CA (human) [5] = molecular target: PIK3CA (human) (UniProt P42336); assay: Assessment of Cell Proliferation in T47D Cells Using MTT Assay; details: t-47d
PIK3CA (human) [6] = molecular target: PIK3CA (human) (UniProt P42336); assay: Assessment of Cell Proliferation in SK-BR3 Cells Using MTT Assay; details: skbr3
PIK3CA (human) [7] = molecular target: PIK3CA (human) (UniProt P42336); assay: Enzyme Assay
CDK2 = CDK2 (UniProt P24941); assay: Enzyme Assay
ROCK2 (human) [8] = molecular target: ROCK2 (human) (UniProt O75116); assay: Assessment of ROCK2 Kinase Activity using IMAP Assay
EGFR (human) [9] = molecular target: EGFR (human) (UniProt P00533); details: a431
CDK2 (Human) [10] = molecular target: CDK2 (Human) (UniProt P24941)
CDK2 (Human) [11] = molecular target: CDK2 (Human) (UniProt P24941); remark: listed apart in the source
[12] = molecular target: PIK3CG (Human), P48736 [Inhibition of PIK3CD Kinase Activity]; assay: Enzyme Assay
PIK3CG (human) [13] = molecular target: PIK3CG (human) (UniProt P48736); assay: Inhibition of PIK3CG Kinase Activity
PIK3CG (human) [14] = molecular target: PIK3CG (human) (UniProt P48736); assay: Inhibition of PIK3CG Kinase Activity; remark: listed apart in the source
PIK3CB (Human) = PIK3CB (Human) (UniProt P42338)
MAPK14 (human) [15] = molecular target: MAPK14 (human) (UniProt Q16539); assay: Assessment of MAPK14 Kinase Activity
EGFR [16] = molecular target: EGFR (UniProt P00533); remark: listed apart in the source
EGFR (human) [17] = molecular target: EGFR (human) (UniProt P00533); details: a431; remark: listed apart in the source
EGFR (human) [18] = molecular target: EGFR (human) (UniProt P00533); details: a431; remark: listed apart in the source
CDK2 (human) [19] = molecular target: CDK2 (human) (UniProt P24941)
ROCK2 (human) [20] = molecular target: ROCK2 (human) (UniProt O75116); assay: Inhibition of ROCK2 Kinase Activity

`CC(C)Oc1nc(-c2ccc(NC(=O)Nc3ccc(C(=O)NC4CCN(C)CC4)cc3)cc2)nc(N2CCOCC2)n1` showed an IC50 (PIK3CA (human) [1]) of 1.4 nM.
With `Cc1ccc(C(=O)NC2CC2)cc1-c1cc2cnnc(-c3ccc(C(F)(F)F)cc3F)c2n(C)c1=O` the IC50 (MAPK14 (human) [2]) was 2.9 nM.
In the case of `N#Cc1ccc(-c2ccc3c(c2)/C(=C/Nc2ccc(CN4CCCCC4)cc2)C(=O)NC3=O)cc1`, the IC50 (CDK2 (human) [3]) is reported as 26500 nM.
`COc1cc2ncnc(Nc3cc(OC)c(OC)c(OC)c3)c2cc1OC` gave an IC50 (EGFR [4]) of 500 nM.
In the case of `COc1ccc(-c2c[nH]c3ncc(-c4cnc(N)c(S(=O)(=O)N5CCOCC5)c4)cc23)cc1OC`, the IC50 (PIK3CA (human) [1]) is reported as 16 nM, the IC50 (PIK3CA (human) [5]) is reported as 700 nM and the IC50 (PIK3CA (human) [6]) is reported as 3700 nM.
`COc1ncc(N2CCc3ncnc(N[C@H]4CCN(C(=O)[C@H]5CC[C@H](OC)CC5)C4)c3C2)cc1C(F)(F)F` showed an IC50 (PIK3CA (human) [7]) of 113 nM.
`CC(C(=O)Nc1cc(C2CC2)[nH]n1)c1ccc(N2C(=O)CCC2=O)cc1` (stereo unspecified) was tested, and the IC50 (CDK2) was 77 nM.
With `c1ccc(Nc2nc(OCC3CCCCC3)c3nc[nH]c3n2)cc1` the IC50 (CDK2) was 1000 nM.
In the case of `Cc1ccc(C(=O)NC2CC2)cc1-c1cc2cnnc(-c3ccccc3C(F)(F)F)c2n(C)c1=O`, the IC50 (MAPK14 (human) [2]) is reported as 3.9 nM.
Work on `Cc1cc2c(=O)c(O)c(-c3ccc(O)c(O)c3)oc2c2c1CCCCC2` yielded an IC50 (CDK2 (human) [3]) of 2600 nM.
`COc1ncc(N2CCc3ncnc(N[C@H]4CCN(C(=O)[C@H]5CC[C@@H](OC)CC5)C4)c3C2)cc1C(F)(F)F` gave an IC50 (PIK3CA (human) [7]) of 54 nM.
For `N[C@H]1CCc2nc(NC(=O)c3cccc(CNC(=O)c4csc(-c5ccncc5)n4)c3)sc2C1`, the IC50 (ROCK2 (human) [8]) was 1.1 nM.
Work on `COc1cc2ncc(C#N)c(Nc3ccc(F)c(Cl)c3)c2cc1OC` yielded an IC50 (EGFR (human) [9]) of 1030 nM.
`COc1ccccc1[C@@H]1C2=C(CC(C)(C)CC2=O)Nc2n[nH]c(C)c21` was tested, and the IC50 (CDK2 (Human) [10]) was 1500 nM and the IC50 (CDK2 (Human) [11]) was 2200 nM.
Compound `O=c1cc(N2CCOCC2)oc2c(-c3ccccc3)cccc12` has an IC50 [12] of 3020 nM, an IC50 (PIK3CG (human) [13]) of 6500 nM and an IC50 (PIK3CG (human) [14]) of 10000 nM. For the same compound, the IC50 (PIK3CB (Human)) was 560 nM.
Compound `CC[C@@H](NC(=O)c1cn2ncnc(Nc3cc(NC(=O)c4ccc(C#N)cc4)ccc3C)c2c1C)OC` has an IC50 (MAPK14 (human) [15]) of 16 nM.
`CNc1ccc2c(Nc3cccc(Br)c3)ncnc2c1` was tested, and the IC50 (EGFR [16]) was 4 nM.
Compound `OCc1cccc(-c2nc(N3CCOCC3)c3cnn(C4CCNCC4)c3n2)c1` has an IC50 (PIK3CA (human) [1]) of 26 nM.
For `CCOc1cc2ncc(C#N)c(Nc3ccc(OCc4ccccn4)c(Cl)c3)c2cc1NC(=O)/C=C/[C@@H]1CCCN1C`, the IC50 (EGFR (human) [17]) was 22 nM.
In the case of `CCOc1cc2ncc(C#N)c(Nc3ccc(OCc4ccccn4)c(Cl)c3)c2cc1NC(=O)/C=C/[C@H]1CCCN1C`, the IC50 (EGFR (human) [17]) is reported as 45 nM.
In the case of `COc1cc2ncc(C#N)c(Nc3cccc(N(C)C)c3)c2cc1OC`, the IC50 (EGFR (human) [18]) is reported as 0.65 µg/mL (≈ 1.87 µM).
Work on `Clc1cccc(Nc2nc(OCC3CCCCC3)c3nc[nH]c3n2)c1` yielded an IC50 (CDK2) of 2300 nM.
`Cc1ccc(C(N)=O)cc1-c1nnc2ccc(CCc3ccc(F)cc3F)cn12` gave an IC50 (MAPK14 (human) [2]) of 40 nM.
With `NC1=NC(=O)/C(=C2\CCNC(=O)C3NC(Br)=CC23)N1` (stereo unspecified) the IC50 (CDK2 (human) [19]) was 40 nM.
Compound `O=C(Nc1nc(-c2ccncc2)cs1)N[C@H](CO)c1ccccc1` has an IC50 (ROCK2 (human) [20]) of 10 nM.
